This assay deals with Insulin Receptor (IR) (UniProt P06213). The assay can be described thus: BIAcore, IR 450 nM preincubated with MBP 13 µM, over immobilised insulin; residual RU.

These results are taken from US20030236190A1.

“MBP (from UniProt P0AEX9 27-392) (other; other documents disagree on this pair)” showed a Result (RUs) of 209 RU.
